Reference: ChEMBL document CHEMBL4613275, “Sulfonimide and Amide Derivatives as Novel PPARα Antagonists: Synthesis, Antiproliferative Activity, and Docking Studies” (ACS Med Chem Lett, 2020)
Activity calls are given as the source filed them. The calls are words filed in the database; no cut-off is given here.

The chains behind the UniProt entries cited, without tags or fusion partners. Where a name states a change or a piece, a line headed by the entry shows the natural chain unless it says otherwise.
UniProt P37231: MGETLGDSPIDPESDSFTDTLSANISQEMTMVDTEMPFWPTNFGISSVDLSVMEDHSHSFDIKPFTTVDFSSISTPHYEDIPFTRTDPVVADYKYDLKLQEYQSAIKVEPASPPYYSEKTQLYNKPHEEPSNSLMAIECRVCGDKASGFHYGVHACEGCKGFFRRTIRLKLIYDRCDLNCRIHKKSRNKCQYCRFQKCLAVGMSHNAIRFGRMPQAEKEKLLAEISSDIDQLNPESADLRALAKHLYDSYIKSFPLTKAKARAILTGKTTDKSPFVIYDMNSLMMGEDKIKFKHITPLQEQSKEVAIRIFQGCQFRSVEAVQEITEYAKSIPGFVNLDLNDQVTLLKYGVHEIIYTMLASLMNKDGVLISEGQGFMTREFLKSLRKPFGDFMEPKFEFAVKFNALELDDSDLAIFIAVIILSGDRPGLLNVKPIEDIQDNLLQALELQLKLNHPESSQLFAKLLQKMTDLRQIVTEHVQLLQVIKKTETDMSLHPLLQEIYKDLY

biological target: Peroxisome proliferator-activated receptor gamma (Homo sapiens, UniProt P37231); assay: Effect on GAL4-tagged human PPARgamma LBD expressed in human HepG2 cells incubated for 20 to 22 hrs by luciferase reporter gene assay; format: cell-based

Structure (SMILES)	Activity
CCCCNC(=O)C(C)(C)Oc1ccc(CCOc2ccc(/N=N/c3ccccc3)cc2)cc1	inactive
CC(C)(Oc1ccc(CCOc2ccc(/N=N/c3ccccc3)cc2)cc1)C(=O)NCc1ccccc1	inactive
COc1ccc(S(=O)(=O)NC(=O)C(C)(C)Oc2ccc(CCOc3ccc(/N=N/c4ccccc4)cc3)cc2)cc1	inactive
CCCCNC(=O)C(C)(C)Oc1ccc(CCOc2ccc(NC(=O)Nc3ccccc3)cc2)cc1	inactive
CC(C)(Oc1ccc(CCOc2ccc(/N=N/c3ccccc3)cc2)cc1)C(N)=O	inactive

Now from value to molecule:

Activity	Structure (SMILES)
inactive	Cc1ccc(S(=O)(=O)NC(=O)C(C)(C)Oc2ccc(CCOc3ccc(/N=N/c4ccccc4)cc3)cc2)cc1
inactive	CC(C)(Oc1ccc(CCOc2ccc(/N=N/c3ccccc3)cc2)cc1)C(=O)NS(=O)(=O)c1ccc(NC(=O)c2ccccc2)cc1
inactive	CC(=O)Nc1ccc(S(=O)(=O)NC(=O)C(C)(C)Oc2ccc(CCOc3ccc(/N=N/c4ccccc4)cc3)cc2)cc1
